Results as given in paper PMC7762994 (Viruses, 2020).

Amino acid sequences for entries named in this document (tags omitted).
UniProt O15527, whole entry: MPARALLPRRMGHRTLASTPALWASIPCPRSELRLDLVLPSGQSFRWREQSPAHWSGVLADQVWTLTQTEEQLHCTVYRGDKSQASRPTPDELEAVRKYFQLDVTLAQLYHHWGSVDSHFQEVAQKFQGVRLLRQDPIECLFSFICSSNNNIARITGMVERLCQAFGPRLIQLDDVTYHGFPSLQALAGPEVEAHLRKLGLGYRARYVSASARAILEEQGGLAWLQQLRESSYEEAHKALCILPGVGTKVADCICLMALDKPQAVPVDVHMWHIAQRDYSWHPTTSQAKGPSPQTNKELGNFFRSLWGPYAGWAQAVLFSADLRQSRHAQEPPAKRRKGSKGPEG

Biological target: OGG1 (Homo sapiens, UniProt O15527)
Assay: In vitro OGG1 activity assay
Assay type: biochemical

## O=C(Nc1ccc(I)cc1)N1CCC(n2c(=O)[nH]c3cc(Cl)ccc32)CC1 [TH3289]
IC50 of OGG1 inhibition
  IC50: 1600 nM
hOGG1 IC50 (nM)
  IC50: 1620 nM
